{"source": "patent US11400035B2", "about": "“Preservative mixture” (Symrise AG, priority 2016, dated 2022)", "assay": "General solubility of 4-isopropyl-3-methyl-phenol in different hydrophilic solvents, storage at 5° C; note: key: (++++) fully dissolved; (++) dissolved, but moderate recrystallisation after 48 h at 5° C; (+) dissolved, but strong recrystallisation after 48 h at 5° C; (#) not dissolved.", "format": "physicochemical", "conditions": "stored at 5° C.", "data": [{"substance": "Hexylene glycol", "values": [{"measurement": "Solubility of 4-isopropyl-3-methyl-phenol in different hydrophilic solvents", "setting": "Concentration 36 % b.w.", "result": "++"}, {"measurement": "Solubility of 4-isopropyl-3-methyl-phenol in different hydrophilic solvents", "setting": "Concentration 40 % b.w.", "result": "+"}, {"measurement": "Solubility of 4-isopropyl-3-methyl-phenol in different hydrophilic solvents", "setting": "Concentration 46 % b.w.", "result": "+"}, {"measurement": "Solubility of 4-isopropyl-3-methyl-phenol in different hydrophilic solvents", "setting": "Concentration 47 % b.w.", "result": "+"}, {"measurement": "Solubility of 4-isopropyl-3-methyl-phenol in different hydrophilic solvents", "setting": "Concentration 50 % b.w.", "result": "+"}]}]}
